# System: psoriatic plaque
# Settings: 1%, 2% and 4% cream, 100 μl occlusive, 11 days, 24 patients
smiles,measurement,value
"Nc1nc2ccc(OC(F)(F)F)cc2s1 [Riluzole, 2-amino-6-(trifluoromethoxy)-benzothiazole]","parameters of psoriasis severity (visual scoring, skin colour, skin thickness) compared to placebo control",improvement of one or more parameters of psoriasis severity
